From patent publication US20210361742A1 (MICROQUIN, published 2021) come the findings set out here.

In this experiment the target is endogenous BI-1 (Bax Inhibitor-1) of HeLa cells (human, UniProt P55061 1-237). Briefly: co-immunoprecipitation, immunoblot (FIG. 1A legend).

B1: HA-tagged MQ001 (other)
chain: MLSTAADMQGVVTDGMASGLDKDYLKPDDSPSSVNLGCSWNSLTRNLTSPDSRILSSVRDAAASSDNGAQVKVGNRTYRVVVTDNKFCVTRESHSGCFTNLLHRLGWPKGEISRKIEVMLNSSPVNRAMERGAVHSNRPDLPPVDYAPPELPSVDYNSLPVPGNVIGKGGNAVVYEDAEDATKVLKMFTTSQSNEEVTNEVRCFNQYYGAGSAEKIYGDNGDIIGIRMDKINGESLLNISSLPAQAEHAIYDMFDRLEQKGILFIDTTETNVLYDRTRNEFNPIDISSYNISERSWSENQIMQSYHGGKQDLISVVLSKI
Take B1: the binding result is “binds”.
